{
  "source": "patent US10351591B2",
  "about": "“Polypeptides, peptides, and proteins functionalized by alkylation of thioether groups via ring-opening reactions” (The Regents of the University of California, priority 2015, dated 2019)",
  "key": {"[1]": {"assay": "Poly(S-alkyl-L-methionine) stability studies in aqueous buffers", "format": "physicochemical", "conditions": "aqueous buffers ranging in pH from 5 to 9; 37° C., 24 h; S-alkyl-Met/Met ratio by 1H NMR", "procedure": "The mixture was incubated on a 37° C. H2O bath for 24 h. […] The retentate was lyophilized."}, "[2]": {"conditions": "potent nucleophile 2-mercaptopyridine; 37° C., 24 h"}},
  "data": [
    {"substance": "Poly(S-(2-hydroxy-4,7,10,13-tetraoxatetradecyl)-L-methionine sulfonium chloride) [compound 8]", "values": [
      {"measurement": "stability in aqueous buffers", "setting": "[1]", "result": "good stability"},
      {"measurement": "stability against dealkylation by nucleophile", "setting": "[2]", "result": "quite stable"}
    ]}
  ]
}
